Results on 19 compounds are retold here after patent US11124489B2, “EPAC antagonists” (priority 2017, dated 2021).

Molecules are shown by their SMILES. Where two headings read alike, the source gives them in different places.

For one experiment, the target named is EPAC1 (Homo sapiens (Human), UniProt O95398). The note with it: for IC50: read-out: Rap 1b-bGDP EPAC1 IC50; for Relative GEF activity, EPAC1-mediated Rap1b-bGDP exchange: in the presence of 20 μM cAMP, figure.
Experiment [1] addresses T1, EPAC2 (Mus musculus (Mouse), UniProt Q9EQZ6). The note with it: in the presence of 20 μM cAMP; figure.
In experiment [2] the target is T1, EPAC2. As to the kind of experiment: biochemical. The settings on record: Rap1b-bGDP EPAC2 IC50, apparent IC50, EPAC2 GEF activity, 20 μM cAMP.

As usually defined, the IC50 is the concentration that gives 50% inhibition. With `N#C/C(=N\Nc1cc(Cl)cc(Cl)c1)C(=O)c1ccc(C2CCCCC2)cc1` [ZL0634, (E)-2-(4-cyclohexylphenyl)-N-(3,5-dichlorophenyl)-2-oxoacetohydrazonoyl cyanide], the 50% inhibitory concentration (IC50) on EPAC1 was 32.4 ± 9.5 µM. Turning to `CC(C)(C)c1ccc(C(=O)/C(C#N)=N/Nc2cc(C(F)(F)F)cc(C(F)(F)F)c2)cc1` [ZL0479, (E)-N-(3,5-bis(trifluoromethyl)phenyl)-2-(4-(tert-butyl)phenyl)-2-oxoacetohydrazonoyl cyanide], at EPAC1, the “Relative GEF activity, EPAC1-mediated Rap1b-bGDP exchange” value is reported as “dose-dependent inhibition” and the IC50 is 5.5 ± 0.7 µM. For the same compound, on EPAC2 [1], the “Relative GEF activity, EPAC2-mediated Rap1b-bGDP exchange” value is on record as “dose-dependent inhibition”. Further, the concentration for half-maximal inhibition (IC50) at EPAC2 [2] was determined as 6.3 ± 0.9 µM. In the case of `CC(C)(C)c1ccc(C(=O)/C(C#N)=N/Nc2ccc(F)c(Cl)c2)cc1` [ZL0476, (E)-2-(4-(tert-butyl)phenyl)-N-(3-chloro-4-fluorophenyl)-2-oxoacetohydrazonoyl cyanide], the half-maximal inhibitory concentration (IC50) on EPAC1 was 12.4 ± 0.9 µM. Still for that read-out and setting: the value for `CC(C)(C)c1ccc(C(=O)/C(C#N)=N/Nc2cc(Cl)c(Cl)c(Cl)c2)cc1` [ZL0562, (E)-2-(4-(tert-butyl)phenyl)-2-oxo-N-(3,4,5-trichlorophenyl)acetohydrazonoyl cyanide] was 13.9 ± 3.6 µM; that for `N#C/C(=N\Nc1cc(Cl)cc(Cl)c1)C(=O)c1ccc(CN2CCCCC2)cc1` [ZL0644, (E)-N-(3,5-dichlorophenyl)-2-oxo-2-(4-(piperidin-1-ylmethyl)phenyl)acetohydrazonoyl cyanide] was 39.4 ± 4.7 µM.

Regarding `COC(=O)c1ccc(C(=O)/C(C#N)=N/Nc2cc(Cl)cc(Cl)c2)cc1` [ZL0566, Methyl (E)-4-(2-cyano-2-(2-(3,5-dichlorophenyl)hydrazono)acetyl)benzoate], the IC50 on EPAC1 (apparent IC50, EPAC1 GEF activity, 20 μM cAMP) was 29.3 ± 6.2 µM.

Turning to `CC(C)(C)c1ccc(C(=O)/C(C#N)=N/Nc2ccc(C(F)(F)F)c(Cl)c2)cc1` [ZL0561, (E)-2-(4-(tert-butyl)phenyl)-N-(3-chloro-4-(trifluoromethyl)phenyl)-2-oxoacetohydrazonoyl cyanide], the IC50 at EPAC1 was 50.8 ± 14.6 µM. For `CC(C)(C)c1ccc(C(=O)/C(C#N)=N/Nc2cc(F)cc(Cl)c2)cc1` [ZL0477, (E)-2-(4-(tert-butyl)phenyl)-N-(3-chloro-5-fluorophenyl)-2-oxoacetohydrazonoyl cyanide], the IC50 amounted to 6.4 ± 1.4 µM at EPAC1 and 3.4 ± 0.6 µM at EPAC2 [2]. Consider `CC(C)(C)c1ccc(C(=O)/C(C#N)=N/Nc2ccc(Cl)c(C(F)(F)F)c2)cc1` [ZL0559, (E)-2-(4-(tert-butyl)phenyl)-N-(4-chloro-3-(trifluoromethyl)phenyl)-2-oxoacetohydrazonoyl cyanide], for which the IC50 on EPAC1 was 6.1 ± 1 µM; on EPAC2 [2], 12.4 ± 3.9 µM. For `N#C/C(=N\Nc1cc(Cl)cc(Cl)c1)C(=O)c1ccc2ccccc2c1` [ZL0682, (E)-N-(3,5-dichlorophenyl)-2-(naphthalen-2-yl)-2-oxoacetohydrazonoyl cyanide], in that order: 11.3 ± 1.4 µM and 2.5 ± 0.5 µM. Consider `CC(C)(C)c1ccc(C(=O)/C(C#N)=N/Nc2cccc(Cl)c2)cc1` [ZL0474, (E)-2-(4-(tert-butyl)phenyl)-N-(3-chlorophenyl)-2-oxoacetohydrazonoyl cyanide], for which, at EPAC1, the “Relative GEF activity, EPAC1-mediated Rap1b-bGDP exchange” value is reported as “dose-dependent inhibition” and the half-maximal inhibitory concentration (IC50) was 13.3 ± 3 µM. For the same compound, on EPAC2 [1], the “Relative GEF activity, EPAC2-mediated Rap1b-bGDP exchange” value is “dose-dependent inhibition”. At EPAC2 [2], the IC50 amounted to 28.4 ± 5.6 µM. On to `N#C/C(=N\Nc1cc(Cl)cc(Cl)c1)C(=O)c1ccc(CN2CCOCC2)cc1` [ZL0668, (E)-N-(3,5-dichlorophenyl)-2-(4-(morpholinomethyl)phenyl)-2-oxoacetohydrazonoyl cyanide], for which the IC50 on EPAC1 was 14.6 ± 5.7 µM. The same measure, in the same setting: the value for `N#C/C(=N\Nc1cc(Cl)cc(Cl)c1)C(=O)c1ccc(OC(F)(F)F)cc1` [ZL0564, (E)-N-(3,5-dichlorophenyl)-2-oxo-2-(4-(trifluoromethoxy)phenyl)acetohydrazonoyl cyanide] was 40.9 ± 6.8 µM. On the same count and under the same terms, then `N#C/C(=N\Nc1cc(Cl)cc(Cl)c1)C(=O)c1ccc2ncccc2c1` [ZL0642, (E)-N-(3,5-dichlorophenyl)-2-oxo-2-(quinolin-6-yl)acetohydrazonoyl cyanide], with 19.6 ± 6.7 µM; and `CC(C)(C)c1ccc(C(=O)/C(C#N)=N/Nc2ccc(F)c(Cl)c2)cc1` [Compound 12], with above 150 µM. In the case of `CC(C)(C)c1ccc(C(=O)/C(C#N)=N/Nc2cc(Cl)cc(C(F)(F)F)c2)cc1` [ZL0560, (E)-2-(4-(tert-butyl)phenyl)-N-(3-chloro-5-(trifluoromethyl)phenyl)-2-oxoacetohydrazonoyl cyanide], the 50% inhibitory concentration (IC50) on EPAC1 worked out at 5.6 ± 0.9 µM; on EPAC2 [2] it was 5.4 ± 1.1 µM. Regarding `N#C/C(=N\Nc1cc(Cl)cc(Cl)c1)C(=O)c1ccc2c(c1)CCCC2` [ZL0524, (E)-N-(3,5-dichlorophenyl)-2-oxo-2-(5,6,7,8-tetrahydronaphthalen-2-yl)acetohydrazonoyl cyanide], at EPAC1, the “Relative GEF activity, EPAC1-mediated Rap1b-bGDP exchange” value was “dose-dependent inhibition” and the IC50 is 3.6 ± 0.3 µM. Also, at EPAC2 [1], the “Relative GEF activity, EPAC2-mediated Rap1b-bGDP exchange” value was “dose-dependent inhibition”. On EPAC2 [2], the IC50 turned out to be 1.2 ± 0.1 µM.

For the compound `CC(C)(C)c1ccc(C(=O)/C(C#N)=N/Nc2cc(Cl)cc(Cl)c2)cc1` [ZL0475, (E)-2-(4-(tert-butyl)phenyl)-N-(3,5-dichlorophenyl)-2-oxoacetohydrazonoyl cyanide], the 50% inhibitory concentration (IC50) at EPAC1 was determined as 5.4 ± 0.7 µM; on EPAC2 [2], 2.5 ± 0.6 µM.

As for `CC(C)(C)c1ccc(C(=O)/C(C#N)=N/Nc2cc(F)c(F)c(F)c2)cc1` [ZL0478, (E)-2-(4-(tert-butyl)phenyl)-2-oxo-N-(3,4,5-trifluorophenyl)acetohydrazonoyl cyanide], the IC50 on EPAC1 was found to be 24.4 ± 5.7 µM; at EPAC2 [2] it was 15.8 ± 3.8 µM.
